Among the data in publication PMC4610628 (Immunology, 2015) are Kd values, retold here.

This assay concerns the target T1, signalling lymphocyte activation molecule-associated protein (SAP), full length, recombinant human (human, UniProt O60880 1-128).
T1 construct: SAP (SH2D1A), human, full length recombinant protein; called 'soluble monomeric recombinant human SAP' in the results; also called SH2D1A; source: recombinant, produced in-house and purified on the day of the experiment
T1 sequence (looked up): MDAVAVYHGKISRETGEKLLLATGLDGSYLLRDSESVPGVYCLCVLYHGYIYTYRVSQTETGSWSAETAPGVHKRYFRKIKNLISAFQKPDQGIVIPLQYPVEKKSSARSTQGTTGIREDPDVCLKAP
The assay is described as follows: SPR; BIAcore 3000; biotinylated phosphopeptides immobilised on a streptavidin-coated CM5 chip (~30 RU), purified recombinant protein passed over; 37°; 10 mM HEPES pH 7·4, 150 mM KCl, 10 mM EDTA, 0·005% Tween 20; equilibrium data, one-site binding curve. To be noted: both partners purified. (SPR reads the build-up and loss of mass on a sensor chip optically.)

Usually Kd stands for the constant that tells how readily two partners part at equilibrium.

B1: CD244-ITSM2 phosphopeptide (peptide)
peptide: GGSTIYSMIQS
modifications: phosphotyrosine (pY, sixth residue of the peptide); biotin at the N-terminus
notes: CD244 (2B4, SLAMF4), human, ITSM2; source: synthetic peptide; bought: Peptide Protein Research Ltd
On to B1, for which the Kd was 90 nM.
